# From publication PMC7658267, “Effects of CYP46A1 Inhibition on Long-Term-Depression in Hippocampal Slices ex vivo and 24S-Hydroxycholesterol Levels in Mice in vivo” (Frontiers in Molecular Neuroscience, 2020)
# Sequences of proteins named here, by UniProt entry; tags and fusion partners are left off. A change or cut given only in a name is not applied to a line headed by its entry.
# UniProt Q9Y6A2: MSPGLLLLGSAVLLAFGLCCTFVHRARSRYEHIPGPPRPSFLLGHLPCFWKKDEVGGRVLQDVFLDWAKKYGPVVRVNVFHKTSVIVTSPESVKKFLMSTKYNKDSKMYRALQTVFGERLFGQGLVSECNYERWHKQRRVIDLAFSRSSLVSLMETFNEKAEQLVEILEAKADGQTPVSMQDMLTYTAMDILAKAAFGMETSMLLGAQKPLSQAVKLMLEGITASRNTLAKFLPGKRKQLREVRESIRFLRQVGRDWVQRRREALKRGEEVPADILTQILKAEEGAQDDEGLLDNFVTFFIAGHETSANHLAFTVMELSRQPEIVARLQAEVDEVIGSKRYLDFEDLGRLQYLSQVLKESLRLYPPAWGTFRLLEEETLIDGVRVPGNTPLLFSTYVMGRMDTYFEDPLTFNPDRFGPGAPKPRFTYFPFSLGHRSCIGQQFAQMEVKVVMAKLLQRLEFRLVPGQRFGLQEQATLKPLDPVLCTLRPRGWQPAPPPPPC
# Biological target: CYP46A1 (Homo sapiens, UniProt Q9Y6A2)
smiles,measurement,value
C[C@]12CC[C@H]3[C@@H](CCC4=CC(=O)CC[C@@]43C)[C@@H]1CC[C@@H]2O [testosterone],"oxidation to 16beta-hydroxytestosterone by human CYP46A1R bactosomes, LC-MS/MS",oxidation of testosterone to 16-beta-hydroxytestosterone by human CYP46A1 enzyme in vitro
